Test results taken from PMC5041982, “Small-molecule inhibition of STAT3 in radioresistant head and neck squamous cell carcinoma” (Oncotarget, 2016).

The chains behind the UniProt entries cited, without tags or fusion partners.
UniProt P40763, whole entry, species assumed: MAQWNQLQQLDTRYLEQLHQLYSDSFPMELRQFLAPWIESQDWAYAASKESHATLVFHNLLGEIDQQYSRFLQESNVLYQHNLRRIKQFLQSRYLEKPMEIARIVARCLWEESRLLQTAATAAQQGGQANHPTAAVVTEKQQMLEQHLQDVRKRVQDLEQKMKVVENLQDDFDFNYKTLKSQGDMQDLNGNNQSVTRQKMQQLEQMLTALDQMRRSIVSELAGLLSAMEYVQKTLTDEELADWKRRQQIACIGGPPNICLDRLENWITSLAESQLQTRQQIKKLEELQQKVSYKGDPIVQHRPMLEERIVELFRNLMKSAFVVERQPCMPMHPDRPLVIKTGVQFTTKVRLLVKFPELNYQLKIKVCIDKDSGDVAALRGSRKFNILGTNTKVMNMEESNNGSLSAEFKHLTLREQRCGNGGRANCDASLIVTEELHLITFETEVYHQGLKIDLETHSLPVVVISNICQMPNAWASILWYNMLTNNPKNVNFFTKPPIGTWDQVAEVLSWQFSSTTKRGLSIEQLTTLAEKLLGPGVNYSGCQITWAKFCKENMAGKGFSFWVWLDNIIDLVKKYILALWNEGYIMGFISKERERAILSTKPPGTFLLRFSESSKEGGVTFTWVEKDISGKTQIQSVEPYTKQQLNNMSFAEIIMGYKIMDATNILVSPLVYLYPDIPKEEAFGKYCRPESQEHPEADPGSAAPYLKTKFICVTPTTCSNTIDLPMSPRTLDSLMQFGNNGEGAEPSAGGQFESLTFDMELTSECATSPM

Columns and labels:
STAT3 = STAT3 (Homo sapiens, UniProt P40763); test: STAT3/pY-peptide binding surface plasmon resonance (SPR) assay; details: for IC50: STAT3 200 nM
Method: The equilibrium binding levels obtained ± compound were normalized (resonance obtained in the presence of compound ÷ the resonance obtained in the absence of compound × 100) and plotted against Log [nM] […] B. Inhibition of ligand-stimulated STAT phosphorylation, measured by phosphoflow. Serum-starved (1 hour) Kasumi-1 cells, pre-incubated with compound/DMSO (1 hour), were treated with G-CSF (10 ng/ml, 15 min, left two panels) or IFN-γ (10ng/ml, 15 min, right panel). Cells were permeabilized and stained with Alexa647-pSTAT3, and PE-pSTAT1 antibodies and analyzed on BD LSR2. FCS files were uploaded to Cytobank for pSTAT3 and pSTAT1 quantitation. Histograms depicting pSTAT3 and pSTAT1 levels are shown. C. Mean fluorescence (pSTAT3/1) levels were plotted as function the Log [M] compound, and IC50 calculated using GraphPad. […] D. Inhibition of ligand-stimulated STAT phosphorylation, measured by Luminex. Serum-starved (1 hour) Kasumi-1 cells, pre-incubated with compound/DMSO (0/0.1/0.3/1/3/10/100 μM, 1 hour), were treated with G-CSF (10 ng/ml, 15′). Total protein extracts of cells were assayed for pSTAT3, pSTAT1, and GAPDH levels by Luminex. […] These values were plotted as a function of Log [M] compound, and IC50 values calculated using GraphPad. […]
for analysis as described below. were determined by plotting % maximum response as a 3-D pharmacophore generation function of log concentration of compound and fitting the Each molecular chemical feature, including experimental points to a competitive binding model using hydrogen bond donor, hydrogen bond acceptor, positive a four parameter logistic equation: R = Rhigh − (Rhigh − R low)/ (1 + conc/A1)^A2, where R = percent response at and negative ionizable group, and hydrophobic region, inhibitor concentration, R = percent response with no was generated using the LigandScout application compound, R= percent response at highest compound high framework and projected into 3-D space. concentration, A2 = fitting parameter (slope) and A1 = low Feature-pairing IC50 (BIAevaluation Software version 4.1). […]

pSTAT3 (Tyr-705) [1] = molecular target: T1, pSTAT3 (Tyr-705) (Homo sapiens, UniProt P40763); test: Phosphoflow, G-CSF-induced STAT3 phosphorylation in Kasumi-1 cells; type: cell-based
T1 construct: endogenous in cells; host or cells: Kasumi-1
Method: The equilibrium binding levels obtained ± compound were normalized (resonance obtained in the presence of compound ÷ the resonance obtained in the absence of compound × 100) and plotted against Log [nM] […] B. Inhibition of ligand-stimulated STAT phosphorylation, measured by phosphoflow. Serum-starved (1 hour) Kasumi-1 cells, pre-incubated with compound/DMSO (1 hour), were treated with G-CSF (10 ng/ml, 15 min, left two panels) or IFN-γ (10ng/ml, 15 min, right panel). Cells were permeabilized and stained with Alexa647-pSTAT3, and PE-pSTAT1 antibodies and analyzed on BD LSR2. FCS files were uploaded to Cytobank for pSTAT3 and pSTAT1 quantitation. […] Mean fluorescence (pSTAT3/1) levels were plotted as function the Log [M] compound, and IC50 calculated using GraphPad. […] D. Inhibition of ligand-stimulated STAT phosphorylation, measured by Luminex. […] These values were plotted as a function of Log [M] compound, and IC50 values calculated using GraphPad.
Phosphoflow analysis was done as described in Xu et al. Briefly, Kasumi-1 cells, were serum-starved, pre-treated with compound or DMSO (1 hour, RT) and then stimulated with 20 μl of GCSF (10 ng/ml) for 15 minutes at 37°C. The cells were then permeabilized and stained with Alexa647-pSTAT3, Alexa488-pSTAT5 and PE-pSTAT1 antibodies and analyzed using the BD LSR2. […] IC50 values were calculated using the GraphPad Prism.

pSTAT3 (Tyr-705) [2] = molecular target: T1, pSTAT3 (Tyr-705); test: Luminex bead-based assay, G-CSF-induced pSTAT3 in Kasumi-1 cells; type: cell-based
Method: The equilibrium binding levels obtained ± compound were normalized (resonance obtained in the presence of compound ÷ the resonance obtained in the absence of compound × 100) and plotted against Log [nM] […] B. Inhibition of ligand-stimulated STAT phosphorylation, measured by phosphoflow. Serum-starved (1 hour) Kasumi-1 cells, pre-incubated with compound/DMSO (1 hour), were treated with G-CSF (10 ng/ml, 15 min, left two panels) or IFN-γ (10ng/ml, 15 min, right panel). Cells were permeabilized and stained with Alexa647-pSTAT3, and PE-pSTAT1 antibodies and analyzed on BD LSR2. FCS files were uploaded to Cytobank for pSTAT3 and pSTAT1 quantitation. Histograms depicting pSTAT3 and pSTAT1 levels are shown. C. Mean fluorescence (pSTAT3/1) levels were plotted as function the Log [M] compound, and IC50 calculated using GraphPad. […] D. Inhibition of ligand-stimulated STAT phosphorylation, measured by Luminex. Serum-starved (1 hour) Kasumi-1 cells, pre-incubated with compound/DMSO (0/0.1/0.3/1/3/10/100 μM, 1 hour), were treated with G-CSF (10 ng/ml, 15′). Total protein extracts of cells were assayed for pSTAT3, pSTAT1, and GAPDH levels by Luminex. GAPDH-normalized pSTAT3 or pSTAT1 values were divided by this ratio for untreated cells and expressed in percentage. These values were plotted as a function of Log [M] compound, and IC50 values calculated using GraphPad. […]

pSTAT3 = pSTAT3 (Homo sapiens, UniProt P40763); test: Constitutive pSTAT3 in HNSCC cell lines (Luminex); type: cell-based; set-up: endogenous in cells; host or cells: UM-SCC-17B, SCC-35, SCC-61, HN30; details: UM-SCC-17B, 24 hrs

**Q.** How did the IC50 (STAT3; Figure 2A inlay, read-out: SPR IC50, representative binding curve) turn out when `O=C(O)CSc1cc(NS(=O)(=O)c2ccc(C(=O)O)cc2)c2ccccc2c1O` [Compound C188] was run?
**A.** 10 µM

**Q.** What about the IC50 (STAT3; EGFR pY1068 dodecapeptide, mean, n ≥ 2, read-out: pY-Peptide Binding (SPR) IC50) of the same molecule?
**A.** 7.5 ± 3.5 µM

**Q.** And the Ki (STAT3; calculated by Cheng-Prusoff from SPR IC50, [STAT3]=200 nM)?
**A.** 0.0373 µM

**Q.** What about the IC50 (pSTAT3 (Tyr-705) [1]; Figure 2C, Kasumi-1, G-CSF, read-out: Phosphoflow pSTAT3 (Tyr-705) IC50, representative experiment) of the same molecule?
**A.** 24.4 µM

**Q.** What about the IC50 (pSTAT3 (Tyr-705) [1]; Kasumi-1, G-CSF 10 ng/ml 15 min, mean, n ≥ 2, read-out: Ligand Induced Phosphorylation (Phosphoflow) pSTAT3 (GCSF) IC50) of the same molecule?
**A.** 16.8 ± 20.1 µM

**Q.** And the IC50 (pSTAT3 (Tyr-705) [2]; Figure 2D, Kasumi-1, G-CSF, read-out: Luminex pSTAT3 (Tyr-705) IC50, representative experiment)?
**A.** 17.8 µM

**Q.** What about the IC50 (pSTAT3 (Tyr-705) [2]; Kasumi-1, mean, n ≥ 2, read-out: G-CSF Induced Phosphorylation (Luminex) pSTAT3 IC50) of the same molecule?
**A.** 16.2 ± 2.3 µM

**Q.** And the IC50 (pSTAT3; Figure 4A, read-out: Constitutive pSTAT3 (Luminex) IC50, representative experiment)?
**A.** 11.6 µM

**Q.** What about the IC50 (pSTAT3; mean, read-out: Constitutive pSTAT3 IC50) of the same molecule?
**A.** 15.4 ± 9.2 µM

Read-outs that look alike come from different tables or passages of the source.
